Protocol: A combined fertility and peri- and post-natal development study was conducted in rats.

CC(C)Cn1cnc2c(N)nc3ccccc3c21 [imiquimod, 1-(2-methylpropyl)-1H-imidazo[4,5-c]quinolin-4-amine]
Exposure multiple at dose without effects on growth, fertility or reproduction (6 mg/kg/day): 57 ×MRHD based on AUC comparisons | Dose up to which no effects on growth, fertility, reproduction or post-natal development were noted (oral, highest dose evaluated): 6 mg/kg/day

— patent US8222270B2 (Medicis Pharmaceutical Corporation, priority 2008, dated 2012)
